# miR-21 reporter – miR-21 reporter, rising signal. 340,000 tested, under 10 active. Potency, µM (highest dose often 38.3 µM), for the others: at the highest dose reporter change, positive = more light. HeLa miR-21 FLuc reporter, luciferase, 48 h. AID 2288; active = well fitted rising curve with a large enough effect; inconclusive = small, poorly fitted or top-dose-only effect; inactive = no such curve, though single readings can be large or run the other way;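 further: % of control where 0% means no effect; miR-21 action dims this reporter so a rising signal means less miR-21 action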
#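 HeLa cells endogenously expressing miR-21, stably carrying CMV-driven firefly luciferase with a downstream miR-21 binding site, 2000 cells/well. Titrations up to approximately 40 uM, 48 hours; luciferase luminescence read.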
# gsp antag – antagonizes gsp, the McCune-Albright syndrome mutation | gsp-mutant cells, cAMP HTRF, 30 min | Potency, µM (titrated, usually from 76.9 µM), inactives show at the top dose activity change, negative = inhibition, most hits filed as inhibitors | AID 624288 | 340,000 compounds, 0.4% hits; calls by dose curve; cell line not stated here;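 note: intracellular cAMP measured with PDE inhibitor Ro 20-1724 present during compound exposure; potency is the fitted concentration of half-maximal effect; % is set by controls: 0 for no effect and ±100 for the full control effect; nearly all actives have a fitted effect of over 65% in size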
#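 Cells in G418 medium, seeded 16-24 h, 37C; buffer exchange to DPBS + 1 mM CaCl2, 0.5 mM MgCl2, 0.05% BSA; cpds in DMSO + […] (300 uM stock), 30 min 37C; HTRF cAMP detection.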
# gsp ag – agonists of gsp mutant (McCune-Albright syndrome) | gsp mutant cells, cAMP HTRF, 30 min | Potency, µM (top dose mostly 76.9 µM), for inactives: at the top dose activation (cAMP increase), actives largely listed as activators | 340,000 compounds, 0.13% hits; active = well fitted activation curve with a large enough effect; inconclusive = small, poorly fitted or top-dose-only effect, or another doubt; inactive = no such curve, though single readings can be large or run the other way; cell line not stated here;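 note: phosphodiesterase inhibitor Ro 20-1724 added with compounds to block cAMP breakdown; potency is the fitted concentration of half-maximal effect; nearly all actives have a fitted effect of over 60% in size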
#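 Cells in DMEM/10% FBS with G418 were pretreated with compounds in DMSO plus […] (300 uM stock) for 30 min at 37C. cAMP was measured by HTRF (cAMP-d2 plus anti-cAMP antibody-K) after 30 min at room temperature.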
# RXFP1 antagonist – RXFP1 (human) relaxin receptor antagonism; HEK293-RXFP1, relaxin-stimulated cAMP HTRF, 30 min; hits give low values; Q9HBX9; 350,000 compounds, 0.59% hits; activity change, negative = inhibition, % at 57.5 µM;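 active = activity change of -60% or lower, but not beyond a set lower limit; inconclusive = change between -60% and -40%, or beyond the set limit; inactive = change above -40%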; note: % is set by controls: 0 for no effect and ±100 for the full control effect
# RXFP1 ag – agonists of human relaxin receptor RXFP1. Q9HBX9. HEK293T-RXFP1 cAMP TR-FRET, 30 min; response scale: percent of porcine relaxin response, buffer zero. AID 2676. Potency, µM (titrated, usually from 57.5 µM), without a hit: top-dose activation, hits mostly activators. 370,000 compounds, 0.3% hits; note: potency is the fitted concentration of half-maximal effect; % is set by controls: 0 for no effect and ±100 for the full control effect; nearly all actives have a fitted effect of over 60% in size
#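 HEK293 cells stably expressing RXFP1, treated 30 min at 37C with compounds plus PDE4 inhibitor Ro 20174; cAMP measured by HTRF TR-FRET. Normalized to buffer and 29 nM porcine relaxin; EC50 by Hill fit.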
# KinaseGlo FLuc – blocks Kinase-Glo luciferase, a counter-screen artifact; Q27757; Kinase-Glo luciferase, ATP luminescence, 8 min; Potency, µM (top dose mostly 38.3 µM), without a hit: top-dose activity change, negative = inhibition, most hits filed as inhibitors; 200,000 compounds, 0.28% hits; AID 1379; note: potency is the fitted concentration of half-maximal effect; % is set by controls: 0 for no effect and ±100 for the full control effect; nearly all actives have a fitted effect of over 60% in size
#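 Kinase-Glo luciferase light output from ATP and luciferin was measured with 10 uM ATP, within the enzyme's linear range. Buffer: 50 mM imidazole pH 7.2, 50 mM KCl, 7 mM MgCl2, 0.01% Tween 20, 0.05% BSA; luminescence read after 8 min at ambient temperature.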
# The depositor's hits bear a star; ? = inconclusive; / = not tested or not shown; ! = not active in a repeat; [ ] = another dose, or the depositor's remark. Hits are enriched below; roughly 1% of the tested compounds scored in any of these assays. Unless noted, calls come from the whole dose curve; as a rule, active = well fitted curve in the direction sought with a large enough effect; inconclusive = small, poorly fitted or top-dose-only effect, or another doubt; inactive = no such curve, though single readings can be large; an effect the other way counts as inactive or inconclusive.
1. O=C1N=c2ccccc2=C1c1[nH]c(=S)[nH]c1O
2. Cc1ccc(Cl)c2c1=NC(=O)C=2c1[nH]c(=S)[nH]c1O
3. CC(C)N(CCCNC(=O)Cn1ncc2c([nH]c3ccccc32)c1=O)Cc1ccccc1
4. COc1ccc(OC)c(-c2noc(N3CCN(c4cccc(C)c4C)CC3)n2)c1
5. O=C(Nc1ccc(N2CCCCC2)cc1)c1cncc(Br)c1
assay / compound | 1 | 2 | 3 | 4 | 5
miR-21 reporter | -34.9% | 5.4% | -2.3% | 1.0% | -36.5%
gsp antag | -10.5% | 17.4% | 9.5% | / | 1.4%
gsp ag | -27.7% | ? | ? | / | -29.0%
RXFP1 antagonist | -12.6 | -108.6* | -74.8*! | / | -8.5
RXFP1 ag | -1.0% | 0.2% | 1.4% | 0.0% | -0.6%
KinaseGlo FLuc | -2.0% | -25.2% | / | / | -7.6%

6. O=C(Nc1ccc(N2CCN(C(=O)c3ccccc3F)CC2)cc1)c1cncc(Br)c1
7. O=C1CCSC2(C(=O)N(Cc3ccc(F)cc3)c3ccccc32)N1c1ccc(Cl)cc1 (stereo not drawn)
8. C[C@@]12CCC(=O)C=C1CC[C@H]1C2[C@@H](O)C[C@]2(C)[C@@H]1CC[C@@]2(O)C(=O)CO (stereo partly drawn)
9. Cn1cc(-c2cc3n(n2)CCC(=O)N3CCCC(=O)Nc2ccc(F)cc2F)c2ccccc21
10. Clc1ccccc1CN(Cc1ccco1)Cc1nnnn1C1CCCC1
assay / compound | 6 | 7 | 8 | 9 | 10
miR-21 reporter | 9.5% | 25.7% | / | -2.8% | ?
gsp antag | ? | / | / | / | 20µM*
gsp ag | -12.6% | / | / | / | -5.9%
RXFP1 antagonist | -82.2* | -79.5* | / | -6.1 | -32.5
RXFP1 ag | -2.7% | 0.5% | / | -0.9% | 2.2%
KinaseGlo FLuc | / | / | -3.6%[7.66 µM] | / | -3.5%

11. c1coc(CN(Cc2cccs2)Cc2nnnn2C2CCCCC2)c1
12. CCN(Cc1ccccc1)S(=O)(=O)c1ccc2c(c1)NC(=O)CS2
13. COc1cccc2cc(C(=O)NCCc3c(C)[nH]c4ccc(F)cc34)c(=O)oc12
14. Cc1cccc(-c2nc(SCc3cc(=O)c4c(C)cc(C)cc4[nH]3)n[nH]2)c1
15. Cc1ccc(NC(=O)C2CCN(S(=O)(=O)c3c(C)noc3/C=C/N(C)C)CC2)cc1
assay / compound | 11 | 12 | 13 | 14 | 15
miR-21 reporter | -1.3% | 4.4% | -11.1% | 9.3% | 0.1%
gsp antag | -15.3% | 1.6% | / | / | -13.0%
gsp ag | -49.6% | ? | / | / | ?
RXFP1 antagonist | -12.7 | -72.4* | / | -69.9* | -112.4*
RXFP1 ag | -2.4% | 2.7% | 4.2% | -2.5% | -2.2%
KinaseGlo FLuc | -0.4% | / | / | / | /

16. Cc1cc(C)cc(-n2c(SCC(=O)Nc3ccccc3F)nc3c(oc4ccccc43)c2=O)c1
17. COc1ccccc1NC(=S)NC1CCCCCCCCCCC1
18. COc1ccccc1NC(=S)NC1CCCCC1
19. O=C(O)c1cccc(Nc2nc(-c3cc4ccccc4oc3=O)cs2)c1
20. COc1cc2ncc(C(=O)c3ccc(C)cc3)c(N3CCCCC3)c2cc1OC
assay / compound | 16 | 17 | 18 | 19 | 20
miR-21 reporter | 7.9% | 1.9% | -1.6% | -49.6% | 16.5%
gsp antag | / | -3.8% | 0.5% | 35.5µM* | /
gsp ag | / | 2.5% | 20µM* | 4.9%[15.4 µM] | /
RXFP1 antagonist | / | 3.9 | 12.6 | 1.1 | /
RXFP1 ag | -1.5% | 2.1% | 2.6% | 6.1% | 24.4%
KinaseGlo FLuc | / | / | -3.5% | / | /

21. COc1ccc(C(=O)C2CCCN(C3Cc4ccccc4C3)C2)c(OC)c1 (stereo not drawn)
22. COc1ccc(C(=O)C2CCCN(Cc3cc(C)c(O)c(C)c3)C2)c(OC)c1 (stereo not drawn)
23. COc1cc(/C=N/N=C(\N)c2nonc2N)cc(OC)c1O
24. COc1ccc(/C=N/N=C(\N)c2nonc2N)cc1
25. CCc1ccc(-c2cn3c(n2)sc2cc(C(=O)NC4CCCCCC4)ccc23)cc1
assay / compound | 21 | 22 | 23 | 24 | 25
miR-21 reporter | -48.2% | 9.8% | -45.0% | -49.4% | -2.3%
gsp antag | -4.7% | 3.7% | -6.4% | 1.8% | /
gsp ag | -9.6%[15.4 µM] | -7.4%[15.4 µM] | -31.9%[15.4 µM] | -12.9% | /
RXFP1 antagonist | -64.7* | 7.7 | -17.9 | -0.7 | 2.2
RXFP1 ag | 0.9% | 1.9% | -0.3% | -0.1% | 11.7%
KinaseGlo FLuc | -2.2% | / | / | 10µM* | /

26. Cc1cc(C)c2c(NC(=O)c3ccccc3Cl)c(C(=O)NCc3ccc(Cl)cc3)sc2n1
27. Cc1ccc(C)c(NC(=O)CSc2nc3nc(-c4cccs4)cc(C(F)(F)F)c3c(=O)[nH]2)c1
28. O=C(CSc1nc2nc(-c3cccs3)cc(C(F)(F)F)c2c(=O)[nH]1)Nc1ccc(F)c(F)c1
29. CCc1ccc(-n2c(=O)c3ccc(C(=O)NCCc4ccccc4)cc3n(CC(N)=O)c2=O)cc1
30. CCCN(CCC)C(=O)Cn1c(=O)n(-c2ccc(CC)cc2)c(=O)c2ccc(C(=O)NCCc3ccccc3)cc21
assay / compound | 26 | 27 | 28 | 29 | 30
miR-21 reporter | 9.8% | 16.9% | ? | 7.0% | -5.6%
gsp antag | / | -9.7% | -24.2% | -25.5% | /
gsp ag | / | 20µM* | 8.0%[15.4 µM] | 5.0%[15.4 µM] | /
RXFP1 antagonist | -2.6 | -1.1 | -37.2 | -8.0 | /
RXFP1 ag | ? | ? | 22.8% | -0.5% | 25.1µM*
KinaseGlo FLuc | / | / | -0.6% | / | /

# Entries of single compounds, quoted from the list:
# Results for Cc1ccc(C)c(NC(=O)CSc2nc3nc(-c4cccs4)cc(C(F)(F)F)c3c(=O)[nH]2)c1 → miR-21 reporter: 16.9%; gsp antag: -9.7%; gsp ag: 20µM*; RXFP1 antagonist: -1.1; RXFP1 ag: ?; KinaseGlo FLuc: /
# Results for O=C(CSc1nc2nc(-c3cccs3)cc(C(F)(F)F)c2c(=O)[nH]1)Nc1ccc(F)c(F)c1 → miR-21 reporter: ?; gsp antag: -24.2%; gsp ag: 8.0%[15.4 µM]; RXFP1 antagonist: -37.2; RXFP1 ag: 22.8%; KinaseGlo FLuc: -0.6%

# Further compounds follow.
31. CCOC(=O)c1ccccc1NC(=O)N(Cc1ccc(C)cc1)Cc1cccn1-c1nnc(N2CCCC2=O)s1
32. Oc1ccc(C=NNC(=S)Nc2ccc(F)cc2)c(O)c1
33. Cc1ccc(NC(=O)CSc2nc(=O)n3cc(C)ccc3n2)c(C)c1
34. COc1ccccc1NC(=O)CSc1nc(=O)n2cc(C)ccc2n1
35. CN(C)c1ccc(N=Cc2ccco2)cc1
assay / compound | 31 | 32 | 33 | 34 | 35
miR-21 reporter | -5.1% | / | / | / | -34.8%
gsp antag | / | -7.5% | 19.5% | 15.4% | ?
gsp ag | / | ? | ? | 17.8µM* | 27.3%
RXFP1 antagonist | 0.9 | -64.4* | 11.8 | 3.0 | ?
RXFP1 ag | -1.4% | / | 22.9% | 22.6% | -5.8%
KinaseGlo FLuc | / | / | / | / | 11.2µM*

36. CN(C)c1ccc(C=Nc2ccc(N(C)C)cc2)cc1
37. COc1ccc(-c2cc3ncc(-c4ccccc4)c(N)n3n2)cc1
38. COc1ccc(-c2cc3nc(C)cc(-c4ccc(OC)cc4)n3n2)cc1
39. COc1ccc(-c2cc3nc(C)cc(N)n3n2)cc1
40. Cc1c(C(=O)/C=C/N(C)C)nnn1-c1ccc(Cl)cc1Cl
assay / compound | 36 | 37 | 38 | 39 | 40
miR-21 reporter | -53.4% | -25.6% | -9.9% | 12.9% | -15.4%
gsp antag | ? | ? | -2.3% | 0.8% | -1.1%
gsp ag | 5.4% | -1.8% | ? | -1.4%[15.4 µM] | 0.5%[15.4 µM]
RXFP1 antagonist | ? | -19.8 | 2.5 | -12.2 | -64.0*
RXFP1 ag | -7.0% | 1.4% | 6.0% | 4.8% | 4.9%
KinaseGlo FLuc | -9.9% | 11.2µM* | / | 7.94µM* | /

41. CCOc1ccc(CCNC(=O)c2cn(CC)c3ccc(S(=O)(=O)N4CCCCCC4)cc3c2=O)cc1OCC
42. COc1ccc(NC(=O)C2CCCN(S(=O)(=O)c3cccs3)C2)cc1 (stereo not drawn)
43. CCCCOC(=O)c1ccc(NC(=O)c2c(OC)cccc2OC)cc1
44. CC1(C)CC(NC(=O)COc2ccc3ccccc3c2)CC(C)(C)N1
45. Cc1ccc(OCC(=O)NC2CC(C)(C)NC(C)(C)C2)cc1C
46. NC(=O)/C=C/C(=O)Nc1ccc(Cl)cc1
47. O=C(/C=C/C(Cl)(Cl)Cl)Nc1ccc(Cl)cc1
48. COc1ccccc1NS(=O)(=O)c1cccc(NC(=O)Nc2ccccc2)c1
assay / compound | 41 | 42 | 43 | 44 | 45 | 46 | 47 | 48
miR-21 reporter | 13.9% | -0.4% | -5.3% | -10.9% | -4.9% | 8.0% | / | ?
gsp antag | / | / | -17.2% | 3.3% | 2.4% | -3.0% | -6.2% | ?
gsp ag | / | / | 11.2µM* | -4.2% | -36.2% | 2.8%[15.4 µM] | ? | -3.8%
RXFP1 antagonist | / | / | -5.6 | -2.0 | -82.0* | 7.2 | -72.6* | /
RXFP1 ag | 4.7% | 0.7% | 0.2% | 1.0% | -2.0% | -1.3% | / | -0.7%
KinaseGlo FLuc | / | / | 2.5% | -3.5% | 0.1% | 2.7% | / | 0.7%

# Bioassay records: PubChem BioAssay, National Center for Advancing Translational Sciences (NCATS)
